We go through one molecule from US20190269662A1, “SOLID COMPOSITIONS OF ACTIVES, PROCESSES FOR PREPARING SAME AND USES OF SUCH SOLID COMPOSITIONS” (The University of Liverpool, priority 2018, published 2019).

This data set is described as follows: Maraviroc release rate by rapid equilibrium dialysis (RED), HPLC, transport buffer (Examples 8 and 14). The conditions noted are these: 8 kDa MWCO, 6 h, 37° C., 1 mg maraviroc. In kind it is physicochemical. As to the method:
The rate of maraviroc release from the three maraviroc oil-blended SDN formulations found to most reliably and reproducibly produce nanodispersions in Example 7 was assessed across a size selective (8 kDa MWCO) membrane using RED plates and inserts. Control experiments were also run testing the rate of maraviroc release from aqueous maraviroc and a conventional maraviroc SDN (ACS_14-70 wt % maraviroc; 20 wt % PVA; and 10 wt % AOT as described in 2). Transport buffer (TB—consisting of Hanks balanced salt solution, 25 mM HEPES and 0.1% Bovine Serum Albumin (BSA), pH 7.4) was spiked with either DMSO dissolved maraviroc (<5% DMSO), a conventional maraviroc SDN or a maraviroc oil-blended SDN. A total of 1 mg maraviroc was added to the donor compartments for each preparation in 0.1 ml dH2O with an additional 0.5 ml of TB added to the donor chambers. One-millilitre of TB was subsequently added to the corresponding acceptor chambers. The RED plates were sealed using Parafilm to avoid evaporation and placed on an orbital shaker (Heidolph Rotomax 120; 100 rpm, 6 h, 37° C.). […] Collected samples were analysed via HPLC.
Rapid equilibrium dialysis was performed as per Example 8. The compositions correspond to those found to form successful nanodispersions in Examples 9, 10 and 11. The data is also plotted as a bar graph in FIG. 16.

`Cc1nnc(C(C)C)n1[C@@H]1C[C@H]2CC[C@@H](C1)N2CC[C@H](NC(=O)C1CCC(F)(F)CC1)c1ccccc1` [maraviroc] displayed a Rate of release of 0.2491 h.
